# Data: patent US6897237B2, “MMP-12 inhibitors” (Shionogi & Co. Ltd., priority 2000, dated 2005)
# Sequences of proteins named here, by UniProt entry; tags and fusion partners are left off. Residues count along the entry.
# UniProt P03956, 100-469 limits assumed: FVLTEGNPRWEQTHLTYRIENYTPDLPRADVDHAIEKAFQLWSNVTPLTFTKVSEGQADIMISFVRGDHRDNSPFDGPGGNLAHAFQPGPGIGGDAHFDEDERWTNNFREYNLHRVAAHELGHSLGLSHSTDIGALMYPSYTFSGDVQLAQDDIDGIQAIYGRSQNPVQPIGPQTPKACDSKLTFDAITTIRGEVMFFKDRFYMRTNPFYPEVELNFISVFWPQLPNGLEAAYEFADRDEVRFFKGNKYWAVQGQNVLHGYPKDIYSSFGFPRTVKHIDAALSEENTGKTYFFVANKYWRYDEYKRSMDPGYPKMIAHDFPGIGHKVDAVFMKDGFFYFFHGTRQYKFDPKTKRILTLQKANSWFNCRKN
# UniProt P22894, 99-262 limits assumed: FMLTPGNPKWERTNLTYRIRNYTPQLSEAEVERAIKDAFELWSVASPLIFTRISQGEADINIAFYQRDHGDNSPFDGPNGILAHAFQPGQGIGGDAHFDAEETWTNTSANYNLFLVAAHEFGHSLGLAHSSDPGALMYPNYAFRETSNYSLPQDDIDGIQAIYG
# UniProt P08253, 110-660 limits assumed: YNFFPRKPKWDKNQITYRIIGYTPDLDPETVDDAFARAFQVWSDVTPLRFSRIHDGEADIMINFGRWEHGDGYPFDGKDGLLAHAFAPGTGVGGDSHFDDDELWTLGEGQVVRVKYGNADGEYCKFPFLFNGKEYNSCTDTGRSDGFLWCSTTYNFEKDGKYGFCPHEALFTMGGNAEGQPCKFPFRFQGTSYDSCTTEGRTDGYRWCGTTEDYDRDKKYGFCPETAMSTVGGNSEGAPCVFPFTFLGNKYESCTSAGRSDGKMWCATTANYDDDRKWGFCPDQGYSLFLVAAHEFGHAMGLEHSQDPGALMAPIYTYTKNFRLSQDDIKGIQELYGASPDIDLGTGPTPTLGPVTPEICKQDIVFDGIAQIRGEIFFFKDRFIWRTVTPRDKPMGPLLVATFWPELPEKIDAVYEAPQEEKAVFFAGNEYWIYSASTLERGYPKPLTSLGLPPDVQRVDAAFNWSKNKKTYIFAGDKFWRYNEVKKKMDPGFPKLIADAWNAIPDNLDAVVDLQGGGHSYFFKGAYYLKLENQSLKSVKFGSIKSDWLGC
# UniProt P39900, 100-263 limits assumed: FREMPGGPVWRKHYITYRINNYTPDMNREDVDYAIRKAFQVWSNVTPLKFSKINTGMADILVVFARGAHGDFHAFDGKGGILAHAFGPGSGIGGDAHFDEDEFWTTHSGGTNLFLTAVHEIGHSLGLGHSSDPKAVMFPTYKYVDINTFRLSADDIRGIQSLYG
# UniProt P14780, 107-707 limits assumed: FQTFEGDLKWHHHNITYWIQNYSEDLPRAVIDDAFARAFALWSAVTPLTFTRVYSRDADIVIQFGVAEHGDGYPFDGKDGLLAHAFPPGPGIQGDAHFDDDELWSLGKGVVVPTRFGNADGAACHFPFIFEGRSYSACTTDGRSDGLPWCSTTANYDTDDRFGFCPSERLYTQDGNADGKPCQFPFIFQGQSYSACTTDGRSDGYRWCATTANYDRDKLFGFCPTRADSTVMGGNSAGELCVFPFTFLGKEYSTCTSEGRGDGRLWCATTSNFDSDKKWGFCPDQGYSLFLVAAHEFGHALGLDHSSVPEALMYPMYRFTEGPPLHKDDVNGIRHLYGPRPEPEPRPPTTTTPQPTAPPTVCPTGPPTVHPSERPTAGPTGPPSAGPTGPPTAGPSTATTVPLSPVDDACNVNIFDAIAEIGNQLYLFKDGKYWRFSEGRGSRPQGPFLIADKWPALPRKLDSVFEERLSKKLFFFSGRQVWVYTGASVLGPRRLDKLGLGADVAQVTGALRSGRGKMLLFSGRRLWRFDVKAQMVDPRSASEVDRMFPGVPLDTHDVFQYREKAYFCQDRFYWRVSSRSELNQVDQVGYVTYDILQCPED
# How the values were obtained:
# MMP-1 = MMP-1 (Homo sapiens, UniProt P03956); test: Assay for inhibitory activities on MMPs (fluorogenic peptide substrate): MMP-1; details: read-out: MMP-1 inhibitory activity (IC50); substrate MOCAc-Pro-Leu-Gly-Leu-A2Pr(DNP)-Ala-Arg-NH2
# MMP-8 catalytic domain = MMP-8 catalytic domain (Homo sapiens, UniProt P22894); test: Assay for inhibitory activities on MMPs (fluorogenic peptide substrate): MMP-8; details: read-out: MMP-8 inhibitory activity (IC50); substrate MOCAc-Pro-Leu-Gly-Leu-A2Pr(DNP)-Ala-Arg-NH2
# MMP-2 = MMP-2 (Homo sapiens, UniProt P08253); test: Assay for inhibitory activities on MMPs (fluorogenic peptide substrate): MMP-2; type: biochemical; details: read-out: MMP-2 inhibitory activity (IC50); substrate MOCAc-Pro-Leu-Gly-Leu-A2Pr(DNP)-Ala-Arg-NH2
# MMP-12 catalytic domain = MMP-12 catalytic domain (Homo sapiens, UniProt P39900); test: Assay for inhibitory activities on MMPs (fluorogenic peptide substrate): MMP-12; details: read-out: MMP-12 inhibitory activity (IC50); substrate MOCAc-Pro-Leu-Gly-Leu-A2Pr(DNP)-Ala-Arg-NH2
# MMP-13 catalytic domain = MMP-13 catalytic domain (Homo sapiens, UniProt P45452); test: Assay for inhibitory activities on MMPs (fluorogenic peptide substrate): MMP-13; details: read-out: MMP-13 inhibitory activity (IC50); substrate MOCAc-Pro-Leu-Gly-Leu-A2Pr(DNP)-Ala-Arg-NH2
# MMP-9 = MMP-9 (Homo sapiens, UniProt P14780); test: Assay for inhibitory activities on MMPs (fluorogenic peptide substrate): MMP-9; details: read-out: MMP-9 inhibitory activity (IC50); substrate MOCAc-Pro-Leu-Gly-Leu-A2Pr(DNP)-Ala-Arg-NH2
compound,measurement,setting,value
CSCC[C@@H](NS(=O)(=O)c1ccc(C#Cc2ccc3ccccc3c2)cc1)C(=O)O,IC50,MMP-1,> 10000 nM
same,IC50,MMP-8 catalytic domain,1320 nM
same,IC50,MMP-2,110 nM
same,IC50,MMP-12 catalytic domain,10 nM
same,IC50,MMP-13 catalytic domain,370 nM
same,IC50,MMP-9,620 nM
